Laboratory results from patent US8143072B2, “System for detecting nanoparticles using modulated surface plasmon resonance” (The University of Toledo, priority 2006, dated 2012).

Experiment: Chemical and storage stability
Type: physicochemical
Conditions: room temperature, stored under a nitrogen atmosphere

storage stability: stable
Substance: p-[4-(N-(3-Triethoxysilylpropylamino)succinamido)]-benzyl 4,6-O-benzylidene-2-deoxy-2-phthalimido-β-D-glucopyranoside [glucosamine 14]
